Experimental data: patent US8680275B2, “Fused heterocyclic compounds as orexin receptor modulators” (Janssen Pharmaceutica NV, priority 2009, dated 2014)
Read-outs that look alike come from different tables or passages of the source.

Amino acid sequences for entries named in this document (tags omitted).
UniProt O43614, whole entry: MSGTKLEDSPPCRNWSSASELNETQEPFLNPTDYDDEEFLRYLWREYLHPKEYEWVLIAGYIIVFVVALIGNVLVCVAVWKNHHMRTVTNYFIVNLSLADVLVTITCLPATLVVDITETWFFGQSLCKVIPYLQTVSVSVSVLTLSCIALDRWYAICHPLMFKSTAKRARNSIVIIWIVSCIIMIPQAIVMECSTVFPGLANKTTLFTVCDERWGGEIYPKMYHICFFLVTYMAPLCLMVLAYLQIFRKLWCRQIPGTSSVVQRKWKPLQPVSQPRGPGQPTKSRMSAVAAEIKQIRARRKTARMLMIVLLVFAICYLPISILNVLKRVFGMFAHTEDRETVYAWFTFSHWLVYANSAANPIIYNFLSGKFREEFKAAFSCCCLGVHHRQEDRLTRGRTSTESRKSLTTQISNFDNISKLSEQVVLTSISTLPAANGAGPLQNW
UniProt O43613, whole entry: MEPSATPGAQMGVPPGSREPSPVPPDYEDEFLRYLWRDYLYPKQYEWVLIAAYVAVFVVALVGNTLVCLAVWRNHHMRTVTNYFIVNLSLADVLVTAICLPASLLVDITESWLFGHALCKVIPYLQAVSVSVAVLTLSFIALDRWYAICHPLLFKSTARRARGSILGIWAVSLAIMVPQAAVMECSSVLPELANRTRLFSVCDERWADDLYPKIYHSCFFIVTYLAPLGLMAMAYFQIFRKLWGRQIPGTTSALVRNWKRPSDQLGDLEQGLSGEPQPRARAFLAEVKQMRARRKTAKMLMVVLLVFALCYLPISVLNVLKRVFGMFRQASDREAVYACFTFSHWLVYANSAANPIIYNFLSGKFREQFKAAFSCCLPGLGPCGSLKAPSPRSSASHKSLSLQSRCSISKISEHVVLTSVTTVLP

Legend:
[1] = target: human orexin-2 receptor (Homo sapiens (Human), UniProt O43614); assay: Human orexin 2 receptor radioligand binding ([3H]-EMPA competition); conditions: read-out: OR-2 Ki
Protocol: (§1) The in vitro affinity of the compounds for the human orexin-1 and orexin-2 receptors was determined by competitive radioligand binding using [^3H]SB SB674042 (1-(5-(2-fluoro-phenyl)-2-methyl-thiazol-4-yl)-1-((S)-2-(5-phenyl-(1,3,4)oxadiazol-2-ylmethyl)-pyrrolidin-1-yl)methanone) (Langmead et al., British Journal of Pharmacology 2004, 141:340-346.) and [^3H]EMPA (N-ethyl-2[(6-methoxy-pyridin-3-yl)-(toluene-2-sulfonyl)-amino]-N-pyridin-3-ylmethyl acetamide) (Malherbe et al., British Journal of Pharmacology, 2009, 156(8), 1326-1341), respectively.
Human Orexin 2 Receptor Radioligand Binding Studies
HEK293 stably expressing human orexin-2 receptor (Genebank accession number NM_001526) were grown to confluency in DMEM/F12 (Gibco, Cat #11039), in DMEM, 10% FBS, 1× Pen/Strep, 1× NaPyruvate, 1×HEPES, 600 ug/ml G418 media on 150 cm^2 tissue culture plates, washed with 5 mM EDTA in PBS (HyClone Dulbecco's Phosphate Buffered Saline 1× with Calcium and Magnesium, Cat #SH30264.01, hereafter referred to simply as PBS) and scraped into 50 ml tubes. After centrifugation (2K xG, 10 min at 4° C.), the supernatant was aspirated and the pellets frozen and stored at −80° C. Cells were resuspended in PBS in the presence of 1 tablet of protease inhibitor cocktail (Roche, Cat. #11836145001) per 50 mL. […] Competition binding experiments in 96 well polypropylene plates were performed using [^3H]-EMPA (Moravek Corporation, specific activity=27 Ci/mmol), diluted to a […] concentration in PBS (5 nM final concentration). Compounds were solubilized in 100% DMSO (Acros Organics, Cat. #61042-1000) and tested over a range of 7 concentrations (from 0.1 nM to 10 μM). The final concentration of DMSO in the reactions is equal to or less than 0.1%. Total and nonspecific binding was determined in the absence and presence of 10 μM (N-[2-(3,4-dimethoxyphenyl)ethyl]-N-methylnaphthalene-1-carboxamide, CAS Registry #1089563-88-1). […] Plates were dried in 55° C. oven for 60 min, scintillation fluid was added, and the radioactivity was counted on a Topcount (Packard).

[2] = target: human orexin 1 receptor (Homo sapiens (Human), UniProt O43613); assay: Human orexin 1 receptor radioligand binding ([3H]-SB674042 competition); conditions: read-out: OR-1 Ki
Protocol: as §1
Human Orexin 1 Receptor Radioligand Binding Studies
Chinese ovary cells (CHO) stably expressing human orexin 1 receptor (Genebank accession number NM_001526) were grown to confluency in DMEM/F12 (Gibco, Cat #11039), 10% FBS, 1× Pen/Strep, 600 μg/mL G418 media on 150 cm^2 tissue culture plates, washed with 5 mM EDTA in PBS (HyClone Dulbecco's Phoshpate Buffered Saline 1× with Calcium and Magnesium, Cat #SH30264.01, hereafter referred to simply as PBS) and scraped into 50 ml tubes. After centrifugation (2K xG, 10 min at 4° C.), the supernatant was aspirated and the pellets frozen and stored at −80° C. Cells were resuspended in PBS in the presence of 1 tablet of protease inhibitor cocktail (Roche, Cat. #11836145001) per 50 mL. […] Compounds were solubilized in 100% DMSO (Acros Organics, Cat. #61042-1000) and tested over a range of 7 concentrations (from 0.1 nM to 10 μM). The final concentration of DMSO in the reactions is equal to or less than 0.1%. Total and nonspecific binding was determined in the absence and presence of 10 μM (1-(6,8-difluoro-2-methylquinolin-4-yl)-3-[4-(dimethylamino)phenyl]urea, CAS Registry #288150-92-5). The total volume of each reaction is 200 μL (20 μL of diluted compounds, 80 μL of [^3H]-SB674042 diluted in PBS and 100 μL of the cell suspension). […] Plates were dried in 55° C. oven for 60 min, scintillation fluid was added, and the radioactivity was counted on a Topcount (Packard).

[3] = HEK293 cells stably expressing human orexin-2 receptor, [3H]-EMPA 5 nM final
[4] = CHO cells stably expressing human orexin 1 receptor, [3H]-SB674042 4 nM final

| SMILES | Ki [1, 3] [nM] | Ki [2, 4] [nM] | Ki [1] [nM] | Ki [2] [nM] |
| --- | --- | --- | --- | --- |
| O=C(c1ccccc1-c1ccccc1)N1CCC2CN(c3cnc4ccccc4n3)C2C1 (stereo not drawn) [Example 8, Biphenyl-2-yl-(8-quinoxalin-2-yl-3,8-diaza-bicyclo[4.2.0]oct-3-yl)-methanone] | 24 | 24 | – | – |
| O=C(c1ccccc1-c1ccccc1)N1CC[C@H]2CN(c3cnc4ccccc4n3)[C@H]2C1 [Example 5, (1R,6S)Biphenyl-2-yl-(8-quinoxalin-2-yl-3,8-diaza-bicyclo[4.2.0]oct-3-yl)-methanone] | 10 | 8 | – | – |
| Cc1cc(C)nc(N2C[C@@H]3CCN(C(=O)c4ccnc5ncccc45)C[C@@H]32)n1 [Example 132, 4-{[(1R,6S)-8-(4,6-Dimethylpyrimidin-2-yl)-3,8-diazabicyclo[4.2.0]oct-3-yl]carbonyl}-1,8-naphthyridine] | – | – | 10000 | 10000 |
